Assay results reported in patent US20240174992A1, “SPLIT MODIFIED DEHALOGENASE VARIANTS” (Promega Corporation, priority 2022, published 2024).

Target: M13-HaloTag[22-297](M2F)-EGFP
Assay: cell-based or functional assay

Substance: HaloTag[3-19]-CaM (from UniProt P0DP23 2-149)
- increase in median JF646 fluorescence with 6 mM calcium chloride, live HeLa imaging: 7 fold
